This passage reports IC50 results from patent US20110150914A1, “COMPOSITIONS AND METHODS FOR DENGUE VIRUS (DV) TREATMENT AND VACCINATION” (priority 2008, published 2011).

This test has as its target H-2 D^b (mouse; human), P61769.

B1: NS4B59-66 (peptide)
peptide: SSVNVSLT
modifications: not checked
Take B1: the IC50 – broadly, the concentration at which inhibition is half-maximal – turned out to be 1450 nM.
